# According to paper PMC2866327, “Designed Inhibitors of Insulin-Degrading Enzyme Regulate the Catabolism and Activity of Insulin” (PLoS ONE, 2010):
# The chains behind the UniProt entries cited, without tags or fusion partners.
# UniProt P14735, whole entry: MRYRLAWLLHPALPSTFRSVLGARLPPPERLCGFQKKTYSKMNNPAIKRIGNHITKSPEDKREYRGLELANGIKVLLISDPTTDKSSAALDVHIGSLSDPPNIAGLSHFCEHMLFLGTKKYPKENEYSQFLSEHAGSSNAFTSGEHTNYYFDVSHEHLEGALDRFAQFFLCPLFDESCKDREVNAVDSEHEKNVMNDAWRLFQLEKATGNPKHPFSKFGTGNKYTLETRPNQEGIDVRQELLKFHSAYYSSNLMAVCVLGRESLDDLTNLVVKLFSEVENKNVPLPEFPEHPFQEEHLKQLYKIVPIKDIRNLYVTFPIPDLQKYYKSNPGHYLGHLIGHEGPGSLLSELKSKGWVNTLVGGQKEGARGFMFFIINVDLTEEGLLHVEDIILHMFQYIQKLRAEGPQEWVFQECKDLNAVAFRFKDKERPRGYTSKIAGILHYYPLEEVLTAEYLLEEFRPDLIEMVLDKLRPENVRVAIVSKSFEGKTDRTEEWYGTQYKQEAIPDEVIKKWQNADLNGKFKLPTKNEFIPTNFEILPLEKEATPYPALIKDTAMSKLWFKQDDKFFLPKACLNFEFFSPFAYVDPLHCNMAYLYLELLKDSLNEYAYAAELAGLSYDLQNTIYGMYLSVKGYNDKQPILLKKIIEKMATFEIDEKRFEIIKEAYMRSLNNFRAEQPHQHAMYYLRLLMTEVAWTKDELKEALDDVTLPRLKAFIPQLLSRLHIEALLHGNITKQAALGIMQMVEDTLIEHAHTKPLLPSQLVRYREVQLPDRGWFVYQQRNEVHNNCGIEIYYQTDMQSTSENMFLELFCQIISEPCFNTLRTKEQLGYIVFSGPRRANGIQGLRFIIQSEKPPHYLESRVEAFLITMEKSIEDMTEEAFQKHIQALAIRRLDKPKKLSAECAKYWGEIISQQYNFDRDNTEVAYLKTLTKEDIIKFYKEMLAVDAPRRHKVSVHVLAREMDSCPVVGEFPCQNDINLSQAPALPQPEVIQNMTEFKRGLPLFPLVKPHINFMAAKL
# Tests used:
# IDE = IDE (Homo sapiens, UniProt P14735); experiment: In vitro IDE enzymatic assay (hydrolysis of FRET1, SP1, FAβB, 125I-insulin or insulin by HTRF); type: biochemical; set-up: made in house; host or cells: bacteria
# [1] = tested on: other zinc-metalloproteases (NEP, ECE1, ACE1, MMP1)
compound,measurement,setting,value
N=C(N)NCCC[C@H](NC(=O)[C@@H](CC(=O)NO)Cc1ccc2ccccc2c1)C(=O)N[C@@H](Cc1c[nH]c2ccccc12)C(=O)N[C@@H](CCC(=O)O)C(N)=O [Ii1],"Ki with longer substrates (insulin, Aβ) relative to shorter substrates",IDE,~10 fold
same,selectivity for IDE vis-à-vis other zinc-metalloproteases,[1],~4 orders of magnitude
